Reference: patent publication US20060216235A1, “Cancerous disease modifying antibodies” (priority 2003, published 2006)

Experiments:
HT-29 [1] = experiment: FACS binding; conditions: 20 micrograms/mL
Description: (§1) Cells were prepared for FACS by initially washing the cell monolayer with DPBS (without Ca^++ and Mg^++). Cell dissociation buffer (INVITROGEN) was then used to dislodge the cells from their cell culture plates at 37° C. After centrifugation and collection the cells were resuspended in Dulbecco's phosphate buffered saline containing MgCl2, CaCl2 and 25% fetal bovine serum at 4° C. […] Prior to the addition of Alexa Fluor 488-conjugated secondary antibody the cells were washed once with wash media. The Alexa Fluor 488-conjugated antibody in staining media was then added for 20 minutes. The cells were then washed for the final time and resuspended in staining media containing 1 microgram/mL propidium iodide. Flow cytometric acquisition of the cells was assessed by running samples on a FACScan using the CellQuest software (BD Biosciences). The forward (FSC) and side scatter (SSC) of the cells were set by adjusting the voltage and amplitude gains on the FSC and SSC detectors. […] Live cells were acquired by gating for FSC and propidium iodide exclusion. Table 3 tabulated the mean fluorescence intensity fold increase above isotype control and is presented qualitatively as: less than 5 (−); 5 to 50 (+); 50 to 100 (++); above 100 (+++) and in parenthesis, the percentage of cells stained.

OVCAR [2] = experiment: FACS binding; conditions: 20 micrograms/mL
Description: as §1

PC-3 [3] = experiment: FACS binding; conditions: 20 micrograms/mL
Description: as §1

SW1116 [4] = experiment: FACS binding; conditions: 20 micrograms/mL
Description: as §1

MB-468 = test system: MB-468; parameters: key to the marks not given beside the values
HT-29 [5] = test system: HT-29
SW1116 [6] = test system: SW1116; parameters: key to the marks not given beside the values
OVCAR [7] = test system: OVCAR
PC-3 [8] = test system: PC-3

For “anti-EGFR: positive control antibody C225, IgG1, kappa, 5 microgram/mL, Cedarlane”, the “percentage of cells stained, HT-29” value (HT-29 [1]) was 97%, the “percentage of cells stained, OVCAR” value (OVCAR [2]) was 90% and the “percentage of cells stained, PC-3” value (PC-3 [3]) was 95%. For the same substance, the “percentage of cells stained, SW1116” value (SW1116 [4]) was 43%, the “cytotoxicity, BREAST MB-231” value (MB-231) was “−” and the “cytotoxicity, BREAST MB-468” value (MB-468) was “+++”. The “cytotoxicity, BREAST MCF-7” value (MCF-7) was “+”, the “cytotoxicity, COLON HT-29” value (HT-29 [5]) was “−” and the “cytotoxicity, COLON SW1116” value (SW1116 [6]) was “+++”. The “cytotoxicity, COLON SW620” value (SW620) was “−”, the “cytotoxicity, LUNG NCI H460” value (NCI H460) was “−” and the “cytotoxicity, OVARY OVCAR” value (OVCAR [7]) was “+”. For the same substance, the “cytotoxicity, PROSTATE PC-3” value (PC-3 [8]) was “−”, the “cytotoxicity, NORMAL CCD27sk” value (CCD 27sk) was “+” and the “cytotoxicity, NORMAL Hs888 Lu” value (Hs888 Lu) was “−”.
